In ChEMBL document CHEMBL5625274, “Improved synthesis, molecular modeling and anti-inflammatory activity of new fluorinated dihydrofurano-naphthoquinone compounds” (Bioorg Med Chem Lett, 2024):

How the values were obtained:
in vitro [1] = conditions: mouse, RAW264.7 cells; at 2 µg/mL
in vitro [2] = conditions: mouse, RAW264.7 cells; at 32 µg/mL
in vitro [3] = conditions: mouse, RAW264.7 cells
in vitro [4] = conditions: mouse, RAW264.7 cells; at 8 µg/mL
in vitro [5] = conditions: mouse, RAW264.7 cells; at 0.5 µg/mL

For `CNC(=N)NCCC[C@H](N)C(=O)O` [TILARGININE], the viability at 2 ug/mL (in vitro [1]) was 100%, the viability at 32 ug/mL (in vitro [2]) was 100% and the viability at 128 ug/mL (in vitro [3]) was 88%. The viability at 8 ug/mL (in vitro [4]) was 100% and the viability at 0.5 ug/mL (in vitro [5]) was 100%.
